Laboratory results taken from ChEMBL document CHEMBL1152245 (Bioorg Med Chem Lett, 2008).

Chains of the proteins cited; added tags and fusions are not shown.
UniProt P20309, whole entry: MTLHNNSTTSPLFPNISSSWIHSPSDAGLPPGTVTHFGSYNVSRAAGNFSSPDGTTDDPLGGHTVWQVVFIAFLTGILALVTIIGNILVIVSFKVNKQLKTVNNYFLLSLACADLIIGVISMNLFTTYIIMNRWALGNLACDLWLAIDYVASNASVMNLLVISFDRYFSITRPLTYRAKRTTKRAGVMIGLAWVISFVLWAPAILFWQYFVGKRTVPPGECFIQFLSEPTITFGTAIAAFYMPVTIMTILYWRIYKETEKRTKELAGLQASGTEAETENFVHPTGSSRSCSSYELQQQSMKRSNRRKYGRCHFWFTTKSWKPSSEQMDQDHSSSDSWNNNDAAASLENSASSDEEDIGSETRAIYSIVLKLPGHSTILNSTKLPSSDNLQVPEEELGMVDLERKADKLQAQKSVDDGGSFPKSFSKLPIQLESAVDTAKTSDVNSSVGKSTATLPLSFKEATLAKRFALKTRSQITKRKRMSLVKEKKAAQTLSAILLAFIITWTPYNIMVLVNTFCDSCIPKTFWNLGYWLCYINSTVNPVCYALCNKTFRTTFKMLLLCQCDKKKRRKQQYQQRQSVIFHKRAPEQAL

Biological target: Muscarinic acetylcholine receptor M3 (Homo sapiens, UniProt P20309)
Experiment: Agonist activity at muscarinic M3 receptor
Format: functional

NC(=O)OCCN1CCC(N2CCC(n3c(=O)[nH]c4ccccc43)CC2)CC1
EC50: 113 nM
